Source: EP3235511A1, “SULPHONAMIDE COMPOUNDS FOR USE IN THE TREATMENT OF HHV-8-ASSOCIATED DISEASES” (UNIVERSITA' DEGLI STUDI DI CAGLIARI, priority 2016, dated 2017)

The chains behind the UniProt entries cited, without tags or fusion partners.
UniProt Q00987, whole entry: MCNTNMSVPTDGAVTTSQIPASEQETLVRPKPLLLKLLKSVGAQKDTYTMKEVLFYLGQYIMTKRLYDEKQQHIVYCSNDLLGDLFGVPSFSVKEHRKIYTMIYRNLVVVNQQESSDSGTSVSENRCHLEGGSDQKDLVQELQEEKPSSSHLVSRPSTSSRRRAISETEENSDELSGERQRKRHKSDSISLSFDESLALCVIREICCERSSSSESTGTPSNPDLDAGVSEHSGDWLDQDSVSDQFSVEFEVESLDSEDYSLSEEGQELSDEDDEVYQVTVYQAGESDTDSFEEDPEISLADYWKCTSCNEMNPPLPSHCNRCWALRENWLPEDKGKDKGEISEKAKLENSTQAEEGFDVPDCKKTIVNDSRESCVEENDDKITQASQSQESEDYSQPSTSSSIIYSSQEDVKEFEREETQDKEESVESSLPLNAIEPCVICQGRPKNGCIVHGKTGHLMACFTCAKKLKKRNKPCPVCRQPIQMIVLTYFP

Molecular target: T1, MDM2-p53 complex (Homo sapiens, UniProt Q00987)
T1 construct: purchased Sigma
Assay: ELISA-based P53-MDM2 binding assay
Conditions: compound added before the formation of the complex; 50 µg/mL
Procedure: In short, 96-well ELISA micro-plates (from Greiner Bio One, Austria) were coated for incubation overnight with 2 µg/mL p53 (human recombinant from Sigma) in PBS at 4 °C. The next day, the coating buffer was removed and the plates were incubated with Chemi-Blocker blocking buffer (from Merck-Millipore, Italy) for 2 hours at room temperature to block non-specific protein binding sites on the plate. […] The compounds under test were dissolved in DMSO (dimethyl sulfoxide, 5 mg/mL stock solution) and diluted in blocking buffer to obtain a final concentration of 50 µg/mL. The total incubation time of GST-MDM2 was 1 h. […] The absorbance was measured with a Microtiter plate reader (Model 680, from Bio-Rad, Hercules, CA) equipped with a 450 nm filter and the respective luminescence units (RLU) were measured. The inhibition percentage of the p53-MDM2 complex was calculated as follows: […]
Data are expressed as µg/mL ± SE average of three independent experiments.

inhibition of MDM2-p53 complex formation: 62%
SMILES: COc1ccc(C2=NC(c3ccc(Cl)cc3)C(c3ccc(Cl)cc3)N2C(=O)N2CCNC(=O)C2)c(OC(C)C)c1 (stereo not shown) [nutlin 3]
